# Binding of CDR-mutated scFvs to a peptide of the spike HR2 region

Source: Li et al. 2023 (doi:10.1038/s41467-023-39022-2), MIT Lincoln Laboratory and A-Alpha Bio; data file from the FLAb repository.

The target is the same throughout: PDVDLGDISGINAS, from the HR2 region of SARS-CoV-2 spike.

Parent: Ab-14, a human scFv built as VH, the linker GGGGSGGGGSGGGGS, VL. Only the CDRs of the heavy chain vary.
VH: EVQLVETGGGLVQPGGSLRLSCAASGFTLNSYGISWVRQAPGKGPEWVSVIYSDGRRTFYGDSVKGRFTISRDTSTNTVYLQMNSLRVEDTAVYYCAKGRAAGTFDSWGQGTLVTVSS
VL: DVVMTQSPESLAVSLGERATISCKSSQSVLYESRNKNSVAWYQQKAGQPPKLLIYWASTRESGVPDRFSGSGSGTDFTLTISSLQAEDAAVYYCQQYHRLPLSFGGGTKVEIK

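Phage display of a naive human antibody library on the peptide gave the parent. These sequences belong to a second round, designed from the earlier measurements on random variants of the parent. Their group label is 14H_En_HC (En: ensemble of fine-tuned language models; HC: hill climbing; a sequence that several methods proposed may carry one label only). The scFvs were displayed on barcoded MATa yeast, the peptide on MATalpha yeast. After mating in shaken culture at 30 °C for 16 h, diploids were selected and their barcode pairs sequenced. Each replicate has its own calibration line, from reference interactions of the BCL2 family. There are six technical replicates.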

Each variant is given by its three heavy chain CDRs, as the data file delimits them; those of the parent are GFTLNSYGIS, VIYSDGRRTFYGDSVK, GRAAGTFDS. Values are log10 of the apparent Kd in nM; lower means stronger binding. "ND" marks a missing value. The strain was present, yet no cells mated with the target were sequenced in that replicate, which points to weak or no binding. Values of this round are not directly comparable with the first-round values of the same sequences. Of ten entries with the parent sequence, four were seen in most replicates (averages 0.34 to 2.37), three in one and three in none, so single entries are noisy. The authors' rule: three or more of the six replicates give a measured affinity, fewer mean a poor binder. Nonspecific signal, from three strains lacking the peptide, appeared in 1% of pairings of all heavy chain designs, centred on 2.08 (5% of these signals below 0.84); values are not corrected for it. Also given: how often the same scFv was detected with the empty control strains, with their mean in brackets.

CDR-H1 | CDR-H2 | CDR-H3 | replicates, log10 nM | signal with controls
GFDLDEYGIS | VIYADGMRTFYADSVK | GNEAGTFDS | 0.72 -0.02 0.11 -0.16 0.21 0.66 | 0 of 18
GFDLNEYGIS | VIYADGRRTFYADSVK | GNQAGTFIL | 0.91 0.72 0.65 0.74 0.85 1.05 | 0 of 18
GFDLNEYGIS | VIYADGRRTYYADSVK | GENAGTFDQ | 0.35 -0.19 0.43 0.86 0.02 0.26 | 0 of 18
GFNLDEYGIS | VIYADGMRTFYTDSVK | GETAGTFIN | -0.47 -0.85 -1.31 -1.33 -1.10 -0.76 | 0 of 18
GFDLNEYGIS | VIYADGRRTFYSDSVK | GEAAGFFDV | ND 3.07 ND 2.00 1.28 2.63 | 0 of 18
GFNLEDYGIS | VIYADGRRTFYADSVK | GKVAGTFDS | -0.54 -0.55 -0.55 -0.92 -0.83 -0.56 | 0 of 18
GFDLNEYGIS | VIYADGMRTFYIDSVK | GNAAGTFDS | -0.54 -0.69 -0.77 -0.65 -0.29 -0.56 | 0 of 18
GFSLDEYGIS | VIYADGRRTAYADSVK | GNVAGTFDV | 0.04 -0.35 -0.42 -0.34 -0.25 0.12 | 0 of 18
GFDLNEYGIS | VIYADGMRTQYIDSVK | GNEAGTFDD | ND ND ND ND ND ND | 1 of 18 (0.82)
GFDLNEYGIS | VIYADGKRTAYLDSVK | GEAAGTFDS | -0.15 0.01 0.13 -0.11 0.09 0.38 | 0 of 18
GFDLNEYGIS | VIYADGRRTFYSDSVK | GQLAGTFDL | -0.45 -0.62 -0.50 -0.68 -0.72 -0.64 | 0 of 18
GFDLNEYGIS | VIYADGQRTAYSDSVK | GQTAGTFDV | 0.01 0.12 -0.27 -0.22 -0.48 -0.13 | 0 of 18
GFTLDEYGIS | VIYADGRRTFYTDSVK | GENAGTFDV | 0.06 0.46 0.13 0.22 -0.01 0.43 | 0 of 18
GFDLNEYGIS | VIYADGKRTFYSDSVK | GQVAGTFDV | -0.23 -0.15 -0.26 -0.49 -0.22 -0.20 | 0 of 18
GFDLNEYGIS | VIYADGVRTFYADSVK | GNVAGTFFS | -0.32 0.34 -0.32 -0.33 -0.51 -0.10 | 0 of 18
GFDLEDYGIS | VIYADGRRTFYADSVK | GEVAGTFDS | -0.26 -0.24 -0.40 -0.71 -0.57 -0.44 | 0 of 18
GFSLDEYGIS | VIYADGRRTFYQDSVK | GNVAGTFDS | -0.41 -1.03 -1.05 -0.69 -0.81 -0.96 | 0 of 18
GFDLNEYGIS | VIYADGQRTFYTDSVK | GQLAGTFDS | -0.23 -0.12 -0.58 -0.12 -0.11 -0.17 | 1 of 18 (1.09)
GFDLNEYGIS | VIYADGVRTFYSDSVK | GETAGTFDV | -0.46 -1.00 -1.13 -1.19 -0.88 -0.78 | 0 of 18
GFSLDEYGIS | VIYADGRRTFYQDDVK | GNVAGTFDA | -0.62 -0.69 -0.39 -0.74 -0.59 -0.60 | 0 of 18
GFSLNEYGIS | VIYADGRRTFYADNVK | GNVAGTFDQ | -0.63 -0.57 -0.89 -0.49 -0.59 -0.70 | 0 of 18
GFDLNEYGIS | VIYADGRRTFYADSVK | GSVAGTFDM | -0.67 -0.67 -0.76 -0.85 -0.61 -0.44 | 2 of 18 (3.55)
GFDLNEYGIS | VIYADGRRTFYDDSVK | GQIAGTFDQ | -0.20 0.07 -0.50 -0.15 -0.57 -0.42 | 0 of 18
GFDLNEYGIS | VIYADGKRTAYLDSVK | GQLAGTFDT | -0.55 -0.37 -0.18 -0.49 -0.47 -0.35 | 0 of 18
GFDLNEYGIS | VIYADGKRTFYADSVK | GQAAGTFDL | -0.42 -0.42 -0.37 -0.65 -0.28 -0.27 | 0 of 18
GFQLDEYGIS | VIYADGRRTFYADSVK | GEVAGTFDV | -0.54 -0.67 -1.07 -0.87 -0.84 -0.77 | 1 of 18 (3.08)
GFNLDEYGIS | VIYADGRRTFYQDDVK | GNVAGTFDV | ND ND ND ND ND ND | 1 of 18 (1.50)
GFNLDEYGIS | VIYADGRRTFYSDSVK | GEAAGTFDV | -0.02 -0.34 0.45 -0.47 -0.63 -0.03 | 0 of 18
GFNLDEYGIS | VIYADGKRTFYADSVK | GQVAGTFDS | -0.36 -0.85 -0.63 -0.48 -0.61 -0.75 | 1 of 18 (2.42)
GFDLNDYGIS | VIYADGRRTAYIDSVK | GEVAGTFDA | -0.98 -0.93 -0.62 -0.90 -0.93 -0.55 | 0 of 18
GFGLDEYGIS | VIYADGRRTFYADSVK | GENAGTFLV | 0.83 ND 0.99 1.44 1.18 1.71 | 1 of 18 (2.11)
GFDLNEYGIS | VIYADGRRTAYKDSVK | GTNGGTFDV | -0.64 -0.76 -0.29 -0.37 -0.57 -0.46 | 0 of 18
GFDLNEYGIS | VIYADGQRTFYADSVK | GNVAGTFFS | -0.11 -0.06 -0.15 -0.11 -0.06 -0.14 | 0 of 18

4 of these entries, quoted again:

CDR-H1 | CDR-H2 | CDR-H3 | replicates, log10 nM | signal with controls
GFDLDEYGIS | VIYADGMRTFYADSVK | GNEAGTFDS | 0.72 -0.02 0.11 -0.16 0.21 0.66 | 0 of 18
GFNLEDYGIS | VIYADGRRTFYADSVK | GKVAGTFDS | -0.54 -0.55 -0.55 -0.92 -0.83 -0.56 | 0 of 18
GFDLNEYGIS | VIYADGKRTAYLDSVK | GQLAGTFDT | -0.55 -0.37 -0.18 -0.49 -0.47 -0.35 | 0 of 18
GFDLNDYGIS | VIYADGRRTAYIDSVK | GEVAGTFDA | -0.98 -0.93 -0.62 -0.90 -0.93 -0.55 | 0 of 18